# Reference: patent publication US20260266848A1, “COMPOSITIONS AND METHODS FOR DIAGNOSING AND TREATING DYSTONIA” (Duke University, priority 2023, published 2026)
# Experiments:
# WT MEF EVs = test: Quantitative LC-MS/MS proteomics of EVs from ISRIB-treated WT MEF cultures; format: cell-based, mouse; parameters: key to ISRIB and DYT Parallel Direction: YES = protein abundance effect similar to DYT/WT; conditions: EV protein abundance
# DYT-TOR1A MEF EVs = test: Quantitative LC-MS/MS proteomics of EVs from drug-treated DYT-TOR1A MEF cultures (ritonavir, salubrinal); format: cell-based, mouse; parameters: key to RTV Corrective Direction: YES = protein abundance effect opposite to DYT/WT; conditions: EV protein abundance
molecule,measurement,setting,value
"Pnp (protein, UniProt P23492 1-289, looked up) Purine nucleoside …: MENEFTYEDYETTAKWLLQHTEYRPQVAVICGSGLGGLTAHLKEAQIFDYNEIPNFPQSTVQGHAGRLVFGLLNGRCCVMMQGRFHMYEGYSLSKVTFPVRVFHLLGVETLVVTNAAGGLNPNFEVGDIMLIRDHINLPGFCGQNPLRGPNDERFGVRFPAMSDAYDRDMRQKAFTAWKQMGEQRKLQEGTYVMLAGPNFETVAESRLLKMLGADAVGMSTVPEVIVARHCGLRVFGFSLITNKVVMDYENLEKANHMEVLDAGKAAAQTLERFVSILMESIPLPDRGS",WT + ISRIB/WT Cohen's d,WT MEF EVs; ISRIB-treated WT vs WT,−0.76
same,ISRIB and DYT Parallel Direction,"WT MEF EVs; WT + ISRIB vs WT, direction compared with DYT/WT",YES
same,RTV Corrective Direction,"DYT-TOR1A MEF EVs; DYT + RTV (ritonavir) vs DYT, direction compared with DYT/WT",YES
same,DYT + RTV/DYT Cohen's d,DYT-TOR1A MEF EVs; ritonavir (RTV)-treated DYT vs DYT,1.71
